Data from article PMC2751792 (Journal of the American Chemical Society, 2009).

Legend:
recombinant human HDAC6 = target: T1, recombinant human HDAC6 (Homo sapiens, UniProt Q9UBN7); experiment: Recombinant HDAC isoform inhibition, HDAC6; assay type: biochemical
T1 sequence (Q9UBN7 1-1215): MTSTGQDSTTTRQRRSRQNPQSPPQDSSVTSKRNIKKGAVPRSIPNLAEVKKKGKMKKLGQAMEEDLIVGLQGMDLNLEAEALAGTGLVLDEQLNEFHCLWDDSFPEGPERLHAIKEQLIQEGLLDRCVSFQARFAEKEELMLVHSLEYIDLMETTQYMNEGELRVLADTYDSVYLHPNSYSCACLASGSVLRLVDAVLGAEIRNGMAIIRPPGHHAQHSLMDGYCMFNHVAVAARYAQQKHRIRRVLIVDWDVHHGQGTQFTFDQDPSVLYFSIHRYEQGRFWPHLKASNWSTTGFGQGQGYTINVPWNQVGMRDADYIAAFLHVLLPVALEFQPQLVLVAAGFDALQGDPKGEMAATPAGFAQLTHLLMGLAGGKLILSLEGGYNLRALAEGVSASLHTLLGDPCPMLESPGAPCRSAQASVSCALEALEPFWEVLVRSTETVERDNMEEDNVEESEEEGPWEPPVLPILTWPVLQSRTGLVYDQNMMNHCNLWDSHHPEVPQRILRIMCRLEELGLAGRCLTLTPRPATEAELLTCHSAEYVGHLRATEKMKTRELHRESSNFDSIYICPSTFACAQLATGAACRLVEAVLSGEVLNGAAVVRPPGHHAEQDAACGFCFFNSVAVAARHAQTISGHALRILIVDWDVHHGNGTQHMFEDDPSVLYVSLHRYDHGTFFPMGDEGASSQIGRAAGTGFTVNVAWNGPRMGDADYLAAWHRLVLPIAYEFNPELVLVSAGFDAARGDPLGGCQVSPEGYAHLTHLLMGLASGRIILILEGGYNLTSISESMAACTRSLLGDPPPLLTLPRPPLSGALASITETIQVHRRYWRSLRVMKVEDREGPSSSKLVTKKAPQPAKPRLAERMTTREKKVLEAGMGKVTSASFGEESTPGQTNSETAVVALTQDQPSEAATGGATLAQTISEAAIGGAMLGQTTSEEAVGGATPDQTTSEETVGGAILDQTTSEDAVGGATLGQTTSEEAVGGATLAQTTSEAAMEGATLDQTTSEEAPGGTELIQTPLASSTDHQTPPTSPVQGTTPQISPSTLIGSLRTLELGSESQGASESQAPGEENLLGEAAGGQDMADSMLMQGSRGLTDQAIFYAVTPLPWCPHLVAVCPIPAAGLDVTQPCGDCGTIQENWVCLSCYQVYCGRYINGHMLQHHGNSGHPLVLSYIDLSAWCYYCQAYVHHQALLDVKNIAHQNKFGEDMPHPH

[1] = test system: HDAC activity in HeLa cell nuclear extract; experiment: Inhibition of HDAC activity in HeLa cell nuclear extract; assay type: biochemical, human; settings: numbers only in Figures 2-4 (not readable)

IC50 (recombinant human HDAC6) [µM] | Compound | HDAC inhibitory activity in HeLa cell nuclear extract, result in words [1]
> 10 | CC(C)C[C@H]1CC(=O)N[C@@H](C)C(=O)N[C@@H](CCCCCC(=O)O)C(=O)N[C@@H](Cc2c[nH]c3ccccc23)C(=O)N1 [3b] | –
– | CCC(=O)CCCCC[C@@H]1NC(=O)[C@H](C)NC(=O)C[C@H](CC(C)C)NC(=O)[C@H](Cc2c[nH]c3ccccc23)NC1=O [compound 3] | low nanomolar IC50 values comparable to that of apicidin
